Experimental data published in patent US9815825B2, “Coumarin derivatives and methods of use in treating cystic fibrosis, chronic obstructive pulmonary disease, and misfolded protein disorders” (DISCOVERYBIOMED, INC., priority 2013, dated 2017).

Amino acid sequences for entries named in this document (tags omitted). Chains listed by the source or under a name are the forms on record and can include a tag or linker.
UniProt P13569, with tags, fused parts or gaps DEL508-508: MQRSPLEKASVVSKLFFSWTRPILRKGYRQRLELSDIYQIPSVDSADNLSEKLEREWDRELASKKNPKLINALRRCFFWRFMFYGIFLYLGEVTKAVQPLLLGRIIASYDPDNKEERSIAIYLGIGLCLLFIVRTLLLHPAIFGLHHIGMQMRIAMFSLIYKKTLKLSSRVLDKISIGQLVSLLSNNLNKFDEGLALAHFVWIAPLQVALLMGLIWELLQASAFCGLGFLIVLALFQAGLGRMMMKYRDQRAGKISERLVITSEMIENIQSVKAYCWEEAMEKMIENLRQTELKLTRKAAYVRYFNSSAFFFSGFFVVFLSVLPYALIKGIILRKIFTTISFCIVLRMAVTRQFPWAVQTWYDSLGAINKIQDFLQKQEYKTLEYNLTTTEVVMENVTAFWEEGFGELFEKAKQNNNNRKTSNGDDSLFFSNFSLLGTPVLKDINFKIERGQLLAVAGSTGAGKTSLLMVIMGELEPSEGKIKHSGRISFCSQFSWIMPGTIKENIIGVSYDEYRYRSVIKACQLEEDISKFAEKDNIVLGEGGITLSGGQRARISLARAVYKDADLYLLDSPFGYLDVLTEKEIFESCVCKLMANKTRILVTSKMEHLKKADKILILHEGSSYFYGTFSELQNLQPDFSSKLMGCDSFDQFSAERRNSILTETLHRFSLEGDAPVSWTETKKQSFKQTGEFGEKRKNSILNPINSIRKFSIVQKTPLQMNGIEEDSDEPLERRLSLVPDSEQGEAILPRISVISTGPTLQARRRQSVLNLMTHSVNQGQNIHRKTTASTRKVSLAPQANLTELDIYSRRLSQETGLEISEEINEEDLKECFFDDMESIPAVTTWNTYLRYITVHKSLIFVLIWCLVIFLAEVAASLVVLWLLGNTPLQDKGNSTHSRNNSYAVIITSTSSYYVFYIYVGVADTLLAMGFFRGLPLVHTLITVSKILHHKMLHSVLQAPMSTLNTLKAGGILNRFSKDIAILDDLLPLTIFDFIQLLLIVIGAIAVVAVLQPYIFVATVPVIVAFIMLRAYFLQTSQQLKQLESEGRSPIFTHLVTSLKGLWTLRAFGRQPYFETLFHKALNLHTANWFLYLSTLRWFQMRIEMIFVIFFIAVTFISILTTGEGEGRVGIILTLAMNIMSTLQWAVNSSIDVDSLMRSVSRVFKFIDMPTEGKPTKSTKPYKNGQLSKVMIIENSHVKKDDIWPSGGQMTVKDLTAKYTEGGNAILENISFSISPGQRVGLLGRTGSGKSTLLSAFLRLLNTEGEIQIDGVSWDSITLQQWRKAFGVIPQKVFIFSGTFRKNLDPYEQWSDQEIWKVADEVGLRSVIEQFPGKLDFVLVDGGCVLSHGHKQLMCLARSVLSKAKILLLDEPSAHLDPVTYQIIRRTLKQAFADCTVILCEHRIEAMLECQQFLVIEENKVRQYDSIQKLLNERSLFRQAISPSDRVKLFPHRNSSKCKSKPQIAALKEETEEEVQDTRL

Experiments:
delF508-CFTR Cl-channels [1] = molecular target: T1, delF508-CFTR Cl-channels (Homo sapiens, UniProt P13569, DEL508-508); test: Epithelial VoltOhmmeter (EVOM) electrical bioassay, drop in transepithelial resistance; assay type: cell-based; conditions: 8-point or 12-point concentration-response curve
ENaC = test: Amiloride-sensitive transepithelial voltage in CFBE-delF508 cell monolayers; assay type: cell-based, human
delF508-CFTR Cl-channels [2] = molecular target: T1, delF508-CFTR Cl-channels; test: Ussing chamber short-circuit current in polarized CFBE cell monolayers; assay type: cell-based; conditions: for cAMP-stimulated Cl− current: Ussing chamber
delF508-CFTR = delF508-CFTR (Homo sapiens, UniProt P13569, DEL508-508); test: Correction and activation of delF508-CFTR in multiple bioassays (fluorescence, biochemical, electrical); assay type: cell-based; conditions: read-out: EC50 on correction and activation of delF508-CFTR, basal (unstimulated) conditions, overnight treatment

COc1ccccc1Nc1nc(-c2cc3cccc(C)c3oc2=O)cs1
EC50 (delF508-CFTR Cl-channels [1]): 260 nM | Maximum Effective Dose (delF508-CFTR Cl-channels [1]): 1.0 µM

COc1ccccc1Nc1nc(-c2cc3cccc(Cl)c3oc2=O)cs1
effect on amiloride-sensitive transepithelial voltage (VTE) (ENaC; acute addition): without effect | inhibition of amiloride-sensitive transepithelial voltage (VTE) (ENaC; chronic (overnight) treatment, FIG. 39): inhibited in a dose-dependent manner | IC50 (ENaC; read-out: IC50 for chronic inhibition of ENaC, both sets of data (FIG. 38 and FIG. 39), chronic treatment): 1000 to 3000 nM | basal Cl currents (delF508-CFTR Cl-channels [2]; DBM 308 at 0.3 μM versus VX-809 at 3 μM): equivalent or larger than VX-809 at 3 μM | cAMP-stimulated Cl− current (delF508-CFTR Cl-channels [2]; 24 hours treatment): little cAMP-stimulated Cl^− current | GlyH101-sensitive Cl− current (delF508-CFTR Cl-channels [2]; as compared to VX 809): less GlyH101-sensitive Cl^− current | EC50 (delF508-CFTR): 100 to 1000 nM | EC50 (delF508-CFTR Cl-channels [1]): 200 nM | Maximum Effective Dose (delF508-CFTR Cl-channels [1]): 0.3 µM

COc1ccccc1Nc1nc(-c2cc3cccc(N)c3oc2=O)cs1
cAMP-stimulated Cl− current (delF508-CFTR Cl-channels [2]; 24 hours treatment): triggers cAMP-stimulated Cl^− current at nM concentrations | correction of functional delF508-CFTR chloride ion channels under basal conditions (delF508-CFTR Cl-channels [2]; nM concentrations (100 nM in FIG. 35), 24 hours treatment): robust correction | EC50 (delF508-CFTR Cl-channels [1]): 250 nM | Maximum Effective Dose (delF508-CFTR Cl-channels [1]): 0.3 µM

COc1ccccc1Nc1nc(-c2cc3cccc(C(F)(F)F)c3oc2=O)cs1
EC50 (delF508-CFTR Cl-channels [1]): 280 nM | Maximum Effective Dose (delF508-CFTR Cl-channels [1]): 1.0 µM

COc1ccccc1Nc1nc(-c2cc3ccc(N)c([N+](=O)[O-])c3oc2=O)cs1
EC50 (delF508-CFTR Cl-channels [1]): 290 nM | Maximum Effective Dose (delF508-CFTR Cl-channels [1]): 1.0 µM
